UUG fidelity – modulators of start codon recognition fidelity in yeast. activity score, % at 18.7 µM. S. cerevisiae UUG-firefly luciferase reporter, luminescence/redox ratio. 350,000 compounds, 0.13% hits;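 active means replicate mean at a twofold rise or more, about +100% in these data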;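 further: firefly luciferase made from a UUG start codon reports start codon fidelity; reporter light over untreated wells divided by growth signal over untreated wells; some hits fall short of that in this replicate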
CAL PDZ FP-1 – inhibitors of human CAL PDZ peptide binding. purified CAL PDZ, TMR-peptide fluorescence polarization, 1 h. inhibition, % at 20 µM. 0.02% of 330,000 active. AID 504414;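 active = highest replicate inhibition of at least 40%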;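 also: plate controls were DMSO neutral control wells for no effect and unlabeled competitor peptide control wells for full effect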
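Control set: unlabelled peptide and DMSO controls / Material: purified CerCALP PDZ construct / Timing: 1 h incubation at room temperature before polarization reading / Doses: 20 µM, one dose / Detection: fluorescence polarization (mP)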
CDK5 inh – blocks human CDK5/p35 kinase activity. Q00535+Q15078. Recombinant CDK5/p35, ADP-Glo luminescence, 60 min. inhibition, % at 10 µM. 0.01% of 330,000 active. AID 488839;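 active = highest replicate inhibition of at least 50% and at least 75% of replicates reaching 50%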;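 also: plate controls were DMSO neutral control for no effect and GW8510 at 10 µM for full effect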
Dyrk1A ADPGlo – inhibitors of rat Dyrk1A kinase; inhibition, % at 12.5 µM; 0.43% of 310,000 active; AID 504441; ADP-Glo luminescence, NFATc1 peptide; in the data active = inhibition above about 50%;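 also: plate controls were vehicle with enzyme for no effect and no enzyme for full effect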
dFosB act – mouse delta FosB homodimer activation; P13346; purified delta FosB, TAMRA-CDK5 oligo fluorescence polarization; percent of positive-control signal above neutral wells; activation, % at 25 µM; 0.99% of 340,000 active; AID 493131;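 active = mean activation above about 17%, with every replicate also reaching it, limit read from the data, passing the limit was not always enough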
CAL PDZ FP-2 – inhibitors of human CAL PDZ peptide binding; Q9HD26; purified CAL PDZ, TMR-peptide fluorescence polarization, 1 h; inhibition, % at 24.9 µM; 0.92% of 300,000 active;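 active = mean inhibition of at least 30% with at least half of replicates also reaching 30%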;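 also: 0% = DMSO neutral control and 100% = excess unlabeled competitor peptide PRC23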
* hit, by the source's call; . = not tested or not shown. A selection: hits, their analogues and other compounds. The true share with any hit is near 1.7%.

1: CCCN(CC(=O)Nc1ccccc1C)C(=O)COc1c(C)cccc1C
2: CCCN(CC(=O)Nc1ccccc1C)C(=O)CCCc1c[nH]c2ccccc12
3: CCN(CC(=O)Nc1c(F)cccc1F)C(=O)CCCc1c[nH]c2ccccc12
4: C=CCN1C(=O)[C@@]2(O[C@@H](CCn3cc([C@H](O)c4ccccc4)nn3)[C@H]([Si](C)(C)c3ccc(OC)cc3)[C@H]2C)c2ccccc21
5: CN1CCN(c2ccccc2NC(=O)c2ccc(N3CCCC3)c([N+](=O)[O-])c2)CC1
6: COc1ccc2[nH]c(=O)c(CN(C(=O)c3cccnc3)c3ccc(C)cc3C)cc2c1
7: COc1ccc2[nH]c(=O)c(CN(C(=O)C3CCCO3)c3ccc(C)c(C)c3)cc2c1 (configuration not stated)
8: Cc1noc(C)c1S(=O)(=O)N(C)C[C@H]1OCCCC[C@H](C)Oc2ccc(NC(=O)CCC(F)(F)F)cc2C(=O)N([C@H](C)CO)C[C@@H]1C

| screen / no. | 1 | 2 | 3 | 4 | 5 | 6 | 7 | 8 |
| --- | --- | --- | --- | --- | --- | --- | --- | --- |
| UUG fidelity | 3 | 9 | 0 | -10 | -4 | -9 | -10 | 12 |
| CAL PDZ FP-1 | 0 | 0 | 0 | . | 58* | -1 | -1 | . |
| CDK5 inh | 1 | 1 | 0 | . | 1 | 2 | -1 | . |
| Dyrk1A ADPGlo | . | . | 0 | . | 1 | -4 | -3 | . |
| dFosB act | -1 | -3 | 2 | . | -20 | -5 | -2 | . |
| CAL PDZ FP-2 | 45* | 132* | -4 | . | 43* | 34* | 48* | . |

9: C[C@@H]1CN([C@@H](C)CO)C(=O)c2cc(N(C)C)ccc2O[C@@H](C)CCCCO[C@H]1CN(C)C(=O)CCC(F)(F)F
10: CCc1nnc(NS(=O)(=O)c2ccc(N3C(=O)c4ccccc4C3=O)cc2)s1
11: O=C(COC(=O)CCSc1ccccc1)Nc1cc(F)ccc1F
12: COC1OC2COC(c3ccccc3)OC2C2OC(c3ccccc3)OC12 (configuration not stated)
13: COC1OC2COC(c3ccccc3)OC2C2OC12 (configuration not stated)
14: COc1ccc(NC(=O)CN2C(=O)NC3(CCCCCC3)C2=O)cc1Cl
15: CCC1CCC2(CC1)NC(=O)N(CC(=O)Nc1ccc(OC)c(Cl)c1)C2=O (configuration not stated)
16: COc1ccc(C2(c3ccc(OC)cc3)NC(=O)N(CC(=O)Nc3ccc(OC)c(OC)c3)C2=O)cc1

| screen / no. | 9 | 10 | 11 | 12 | 13 | 14 | 15 | 16 |
| --- | --- | --- | --- | --- | --- | --- | --- | --- |
| UUG fidelity | 5 | . | . | 4 | -12 | -14 | -15 | 16 |
| CAL PDZ FP-1 | . | -1 | 0 | . | -1 | 1 | 0 | -1 |
| CDK5 inh | . | -1 | -3 | . | 0 | 0 | 0 | 0 |
| Dyrk1A ADPGlo | . | -1 | 8 | . | 0 | -2 | . | 2 |
| dFosB act | . | -4 | -1 | . | -5 | -2 | 5 | -6 |
| CAL PDZ FP-2 | . | 84* | 46* | . | 144* | 3 | 81* | 51* |

17: O=C(NCC[C@H]1CC[C@H](NC(=O)C2CCCCC2)[C@@H](CO)O1)Nc1ccc(Cl)cc1
18: C[C@@H]1CN([C@@H](C)CO)C(=O)Cc2cc(NS(=O)(=O)c3cn(C)cn3)ccc2O[C@@H]1CN(C)C
19: Cc1ccc2c(c1)c1ncnc(N3CCN(c4ccccc4)CC3)c1n2C
20: Cc1ccc2c(c1)c1ncnc(N3CCOCC3)c1n2C
21: NC(=O)COC(=O)c1ccc(NS(=O)(=O)c2ccc3c(c2)OCCO3)cc1
22: N#CCC(=O)Nc1ccc(C(=O)OCC(=O)NC(=O)Nc2ccc3c(c2)OCCO3)cc1
23: CC(C)NC(=O)COC(=O)c1ccc(NS(=O)(=O)c2ccc3c(c2)OCCO3)cc1
24: COc1ccc(S(=O)(=O)N2CCN(C(=O)c3ccco3)CC2)c(C)c1C

| screen / no. | 17 | 18 | 19 | 20 | 21 | 22 | 23 | 24 |
| --- | --- | --- | --- | --- | --- | --- | --- | --- |
| UUG fidelity | 8 | -15 | -10 | 3 | -3 | -8 | -5 | 1 |
| CAL PDZ FP-1 | . | . | -1 | -1 | -1 | -2 | 1 | 7 |
| CDK5 inh | . | . | -1 | -1 | -1 | 1 | -2 | 1 |
| Dyrk1A ADPGlo | . | . | -6 | -1 | -3 | -1 | -4 | 3 |
| dFosB act | . | . | -14 | -6 | -7 | -2 | -11 | -3 |
| CAL PDZ FP-2 | . | . | -3 | 42* | 76* | 62* | -3 | 75* |

25: C[C@H](CO)N1C[C@H](C)[C@H](CN(C)S(=O)(=O)c2ccc(Oc3ccccc3)cc2)OCc2cn(nn2)CCCC1=O
26: N#C[C@H]1[C@@H](c2ccc(C#Cc3ccccc3F)cc2)[C@@H](CO)N1C(=O)C1CCOCC1
27: Cc1ccc(S(=O)(=O)NCC[C@H]2CC[C@H](NC(=O)Nc3cccc(F)c3)[C@@H](CO)O2)cc1
28: O=C(CN1CCCc2ccccc21)NC(=O)NC1CCCCC1
29: O=C(COc1ccc(F)cc1)Nc1nc2c(s1)CCCC2
30: COc1ccc(OCC(=O)Nc2nc3c(s2)CCCC3)cc1
31: COc1ccc(-n2nc3c(c2NC(=O)c2ccco2)CS(=O)(=O)C3)cc1
32: Cc1ccc(-n2nc3c(c2NC(=O)c2ccco2)CS(=O)(=O)C3)cc1

| screen / no. | 25 | 26 | 27 | 28 | 29 | 30 | 31 | 32 |
| --- | --- | --- | --- | --- | --- | --- | --- | --- |
| UUG fidelity | 0 | 7 | 8 | . | -7 | -19 | 5 | -12 |
| CAL PDZ FP-1 | . | . | . | -1 | -1 | -2 | -1 | -1 |
| CDK5 inh | . | . | . | 0 | 0 | -1 | 0 | -13 |
| Dyrk1A ADPGlo | . | . | . | . | 4 | 15 | 20 | 5 |
| dFosB act | . | . | . | -4 | -5 | -4 | -9 | -2 |
| CAL PDZ FP-2 | . | . | . | 82* | -2 | 72* | 76* | -3 |

Taken from above.
CAL PDZ FP-2, Cc1ccc(-n2nc3c(c2NC(=O)c2ccco2)CS(=O)(=O)C3)cc1 = -3
dFosB act, COc1ccc(-n2nc3c(c2NC(=O)c2ccco2)CS(=O)(=O)C3)cc1 = -9
CDK5 inh, O=C(COc1ccc(F)cc1)Nc1nc2c(s1)CCCC2 = 0
CAL PDZ FP-1, O=C(CN1CCCc2ccccc21)NC(=O)NC1CCCCC1 = -1

Further entries follow:
33: CN(CCO)c1nc(N)c2c(N)nc3c(c2c1C#N)CC(=O)N3Cc1cccs1
34: N#Cc1c(N(CCO)CCO)nc(N)c2c(N)nc3c(c12)CC(=O)N3Cc1cccs1
35: CCCC(=O)Nc1ccc2c(c1)C(=O)N(C)C[C@H](OC)[C@H](C)CN(C(=O)c1cnccn1)[C@@H](C)CO2
36: Cc1cc(C(=O)N2CCCC(N3CCN(c4ccccc4C)CC3)C2)n(C)n1 (configuration not stated)
37: Cc1cc(C(=O)N2CCCC(N3CCN(c4cccc(Cl)c4)CC3)C2)n(C)n1 (configuration not stated)
38: COc1ccccc1N1CCN(C2CCCN(C(=O)c3cc(C4CC4)on3)C2)CC1 (configuration not stated)
39: CC(C)CCn1c(N2CCC(C(N)=O)CC2)nc2c1c(=O)[nH]c(=O)n2C
40: CC(C)CCn1c(N2CCCC2)nc2c1c(=O)[nH]c(=O)n2C

| screen / no. | 33 | 34 | 35 | 36 | 37 | 38 | 39 | 40 |
| --- | --- | --- | --- | --- | --- | --- | --- | --- |
| UUG fidelity | -19 | . | 0 | -7 | 3 | -3 | 8 | -10 |
| CAL PDZ FP-1 | 0 | -3 | . | 0 | 0 | 1 | . | 0 |
| CDK5 inh | -1 | -4 | . | -1 | -1 | 2 | 0 | 1 |
| Dyrk1A ADPGlo | 5 | . | . | -6 | -12 | -4 | 2 | 6 |
| dFosB act | -11 | -11 | . | -9 | 0 | -10 | -2 | 3 |
| CAL PDZ FP-2 | 123* | -7 | . | 31* | -2 | 128* | 42* | -1 |

Another view of part of the listing above.
item	SMILES	UUG fidelity	CAL PDZ FP-1	CDK5 inh	Dyrk1A ADPGlo	dFosB act	CAL PDZ FP-2
38	COc1ccccc1N1CCN(C2CCCN(C(=O)c3cc(C4CC4)on3)C2)CC1 (configuration not stated)	-3	1	2	-4	-10	128*
39	CC(C)CCn1c(N2CCC(C(N)=O)CC2)nc2c1c(=O)[nH]c(=O)n2C	8	.	0	2	-2	42*

The results go on.
41: Cc1cccc(N2CCN(C(=O)c3ccc(NC4=NC5CS(=O)(=O)CC5S4)cc3)CC2C)c1 (configuration not stated)
42: CCCC(=O)Nc1ccc2c(c1)C(=O)N(C)C[C@@H](OC)[C@H](C)CN(C(C)=O)[C@@H](C)CO2
43: CC1CCCN(C(=O)COC(=O)/C=C/c2ccc(C(F)(F)F)cc2)C1 (configuration not stated)
44: COc1ccc(N2CCN(C(=O)COC(=O)/C=C/c3ccc(C(F)(F)F)cc3)CC2)cc1

| screen / no. | 41 | 42 | 43 | 44 |
| --- | --- | --- | --- | --- |
| UUG fidelity | -5 | 1 | 4 | -1 |
| CAL PDZ FP-1 | 0 | . | -1 | -2 |
| CDK5 inh | 0 | . | 1 | 0 |
| Dyrk1A ADPGlo | 1 | . | -7 | -6 |
| dFosB act | -3 | . | -9 | -4 |
| CAL PDZ FP-2 | 93* | . | 72* | 0 |

Screening data deposited in PubChem by Broad Institute.
